Data reported in PubChem BioAssay AID540263 (National Center for Advancing Translational Sciences (NCATS), 2011).
Hit rate of the full screen: of about 340,000 compounds, about 100 (0.029%) were called active. Where a call stands in place of a potency, no number is given. Roughly 8% stayed inconclusive and do not appear here. Calls come from the whole dose curve. For the sample, actives were picked, then their nearest neighbours and some compounds at random. Where a SMILES comes first, the peptide text is derived from it. [ ]: non-standard residue; d: D form. ξ: configuration not given here. Ac5c = NC1(C(=O)O)CCCC1; ξS = NC(CO)C(=O)O

Sequences of proteins named here, by UniProt entry; tags and fusion partners are left off.
UniProt Q14974, whole entry, looked up: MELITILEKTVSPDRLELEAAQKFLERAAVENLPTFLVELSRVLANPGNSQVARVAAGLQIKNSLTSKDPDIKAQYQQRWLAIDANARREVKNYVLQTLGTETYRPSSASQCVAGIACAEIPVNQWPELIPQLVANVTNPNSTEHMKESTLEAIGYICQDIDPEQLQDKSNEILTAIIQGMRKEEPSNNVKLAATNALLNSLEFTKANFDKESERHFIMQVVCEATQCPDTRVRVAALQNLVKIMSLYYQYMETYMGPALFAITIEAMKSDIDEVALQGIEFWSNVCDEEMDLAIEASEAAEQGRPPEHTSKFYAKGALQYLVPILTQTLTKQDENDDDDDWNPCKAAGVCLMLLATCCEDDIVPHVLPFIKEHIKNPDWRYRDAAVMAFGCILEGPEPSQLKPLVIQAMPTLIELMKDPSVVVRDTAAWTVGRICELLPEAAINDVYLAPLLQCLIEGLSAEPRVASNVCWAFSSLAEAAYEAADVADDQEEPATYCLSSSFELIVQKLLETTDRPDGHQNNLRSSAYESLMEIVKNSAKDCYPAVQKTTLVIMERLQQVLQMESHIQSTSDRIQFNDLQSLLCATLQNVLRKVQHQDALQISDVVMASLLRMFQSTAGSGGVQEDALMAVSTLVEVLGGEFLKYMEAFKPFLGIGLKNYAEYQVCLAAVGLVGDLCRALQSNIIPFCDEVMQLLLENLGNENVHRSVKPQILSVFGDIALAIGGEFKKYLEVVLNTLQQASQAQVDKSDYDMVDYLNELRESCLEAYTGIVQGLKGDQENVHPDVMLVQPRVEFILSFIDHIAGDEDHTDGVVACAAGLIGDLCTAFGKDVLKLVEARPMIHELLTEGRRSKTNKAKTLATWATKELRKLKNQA

Molecular target: Importin subunit beta-1 (Homo sapiens) (UniProt Q14974)
Test: qHTS Assay for Inhibitors of Rango (Ran-regulated importin-beta cargo) - Importin beta complex formation; note: nearly all actives have a fitted effect of over 15% in size
Details: Rango CFP/YFP FRET sensor + importin beta, 45 min; series mostly up to 92.2 µM
Description: NIH Molecular Libraries Probe Production Centers Network [MLPCN] NIH Chemical Genomics Center [NCGC] MLPCN Grant: R03 MH090808-01A1 Assay Submitter (PI): Petr Kalab NCGC Assay Overview: The small GTPase Ran regulates transport of macromolecules between the nucleus and the cytoplasm (nuclear transport) and has important functions in mitotic spindle assembly, nuclear envelope (NE) formation and nuclear pore complex (NPC) assembly. RanGTP gradient is thought to promote spindle assembly by providing a spatial clue to microtubule nucleation and Aurora A activation. Because the localized release and binding of importin alpha cargo relays this spatial clue to SAFs, inhibitors of the Rango - importin beta complex can then be used in further understanding their role in cell cycle specifically in mitosis progression. […] Activation of Aurora A has been linked to different types of cancer and a number of Aurora kinase inhibitors are being developed as potential canter therapeutics therefore, identified inhibitors of this complex could be developed into potential anti-mitotic probes for cancer treatment. Purified recombinant proteins Rango and importin beta were provided by the assay submitter. The assay used a fluorescence resonance energy transfer (FRET) Rango biosensor that contains the IBB of human snurportin 1 flanked by yellow fluorescent protein (EYFP) at the amino terminus and cerulean CFP10 at the carboxy terminus. […] Inhibitors will therefore be identified based on the ability to interfere with the FRET signal decrease. DMSO treated and no importin beta (buffer only) wells were used as negative and positive controls respectively. FRET readings were obtained at two time points. FRET reading prior to importin beta addition (pre-read) were used flag potential compound interference; FRET reading after importin beta addition (post-read) were used to identify inhibitors using the FRET ratio parameter.
NCGC Assay Protocol Summary: Two and a half uL/well of Rango-buffer solution (50 nM Rango, 1x PBS, 1mM DTT, 0.02% Tween-20, 0.1% BSA final concentrations) was dispensed into 1536-well assay plates (Greiner, solid black medium-binding plates) with Aurora Discovery BioRAPTR Flying Reagent Dispenser (FRD; Beckton-Dickenson). Compound solution (23 nL) was transferred to the assay plate using Kalypsys pin tool equipped with a 1536-pin tool and incubated at room temperature for 5 min followed by a FRET pre-read using the PerkinElmer Envision plate reader. Two and a half uL/well of Importin beta - buffer solution (0.125 microM importin beta, 1x PBS, 1mM DTT, 0.02% Tween-20, 0.1% BSA final concentrations) were then added and incubated at room temperature giving a final reaction volume of 5uL. After 45min FRET post-read was obtained via the Envision plate reader using the same optics and settings as the pre-read (CFP/YFP optimized dual optical module D450/D505; excitation mirror CFP 430/24 nm; and emission filters CFP 486/10 nm and YFP 530/10 nm).
Potency is the fitted concentration of half-maximal effect; tags give direction and shape of the fitted curve.

Question: With `O=C(Cc1ccc(NC(=O)C2CCCN(C(=O)C3CCCCC3)C2)cc1)Nc1cccc(C(=O)N2CCCCC2)c1` (stereo unspecified) as the molecule, how does the Potency read?
Answer: inactive

Question: For `CCOC(=O)[C@H]1[C@H]2COc3ccc(Br)cc3[C@@H]2N2C(=O)CN(C)C(=O)[C@@]12C`, which Potency is on record?
Answer: inactive

Question: With `O=C(NCCc1ccccc1)c1cccc(NC(=O)c2ccccc2)c1` as the molecule, how does the Potency read?
Answer: inactive

Question: How did the Potency turn out when `CC(=O)CSc1nc(CCc2ccccc2)c(C#N)c(=O)[nH]1` was run?
Answer: inactive

Question: Which Potency does the source give for `COC1C(CO)OC(n2cnc3c(=S)nc(N)[nH]c32)C1O` (stereo unspecified) here?
Answer: inactive

Question: Which Potency does the source give for `COc1ccc(Cn2cc(CN3CCS(=O)(=O)N(Cc4ccc(-c5cccc(Cl)c5)cc4)C(C)C3=O)nn2)cc1` (stereo unspecified) here?
Answer: inactive

Question: With `CCN1C[C@@H]2[C@@H]3C(=O)N(Cc4ccccc4)C(=O)[C@@H]3[C@](C)(C1=O)N2C(=O)c1ccc(C(C)(C)C)cc1` as the molecule, how does the Potency read?
Answer: inactive

Question: For `Cc1cc2c(cc1C)NC1(C[C@H]3CCC(=O)N4CC[C@@H](C1)[C@@H]34)C(=NC(C)(C)CC(C)(C)C)N2` (stereo partly specified), which Potency is on record?
Answer: inactive

Question: With `O=C(OCCOc1ccccc1F)c1cc(S(=O)(=O)N2CCOCC2)ccc1F` as the molecule, how does the Potency read?
Answer: inactive

Question: How did the Potency turn out when `O=C1/C(=C\c2ccc([N+](=O)[O-])cc2)CS(=O)(=O)C/C1=C/c1ccc([N+](=O)[O-])cc1` was run?
Answer: inactive

Question: How did the Potency turn out when `FC(F)(F)c1ccc(-c2cccc3c2C2CC3CCN2Cc2ccccc2)cc1` (stereo unspecified) was run?
Answer: inactive

Question: Which Potency does the source give for `CCOc1ccc(S(=O)(=O)N2CCN(C(=O)c3oc4ccccc4c3C)CC2)cc1` here?
Answer: inactive

Question: How did the Potency turn out when `Cc1nc(N)nc(Cl)c1CCC1OCCO1` was run?
Answer: inactive

Question: Which Potency does the source give for `Cn1c(=O)[nH]c2c(c(C(=O)O)nn2C)c1=O` here?
Answer: inactive

Question: `O=C(CC(=O)c1cccnc1)c1ccccc1` was tested. Which Potency did it give?
Answer: inactive

Question: `O=C(O)C(c1cccs1)C1(O)CCCCC1` (stereo unspecified) was tested. Which Potency did it give?
Answer: inactive

Question: For `CC(=NNC(=O)c1ccncc1)c1ccc(Cl)c(Cl)c1`, which Potency is on record?
Answer: inactive

Question: For `Cc1ccc2c(O)c(Cc3ccccc3)c(=O)[nH]c2n1`, which Potency is on record?
Answer: inactive

Question: For `COc1ccc(OC)c(Cc2cnc3nc(N)nc(N)c3c2C)c1`, which Potency is on record?
Answer: inactive

Question: Which Potency does the source give for `O=C1NC(=O)C(CCc2ccccc2)(c2ccccc2)N1` (stereo unspecified) here?
Answer: inactive

Question: Which Potency does the source give for `O=S(=O)(Nc1ccc2ccccc2c1)N1CCCCC1` here?
Answer: inactive

Question: For `NC(=O)C1(Nc2ccc([N+](=O)[O-])cc2)CCCC1`, which Potency is on record?
Answer: inactive

Question: Which Potency does the source give for `CCOC(=O)N1CCN(Cc2nc3cc(NC(C)=O)ccc3n2C)CC1` here?
Answer: inactive

Question: With `COc1cccc(-n2nc(C(=O)N3CCN(Cc4ccccc4)CC3)c3ccccc3c2=O)c1` as the molecule, how does the Potency read?
Answer: inactive

Question: How did the Potency turn out when `CCOC(=O)N1CCN(Cc2nc3ccc([N+](=O)[O-])cc3c(=O)n2-c2cccc(OC)c2)CC1` was run?
Answer: 65.1 µM (active)

Question: Which Potency does the source give for `C=CCn1c(=O)n(C)c2c(=O)n(C)c(=O)n(C)c21` here?
Answer: inactive

Question: How did the Potency turn out when `CCc1nnc(NC(=O)c2cc(S(=O)(=O)N3CCN(CC)CC3)ccc2Cl)s1` was run?
Answer: inactive

Question: For `O=[N+]([O-])c1ccc(N2CCOCC2)cc1`, which Potency is on record?
Answer: inactive

Question: For `COC1=CC(=O)OC(c2ccc(OC)cc2)C1` (stereo unspecified), which Potency is on record?
Answer: inactive

Question: Which Potency does the source give for `C[C@@H]1NS(=O)(=O)c2cc(Cl)ccc2O[C@@H]1c1ccccc1` here?
Answer: inactive

Question: `Cc1onc(-c2c(F)cccc2Cl)c1C(=O)Nc1cccc(S(=O)(=O)N2CCCCC2)c1` was tested. Which Potency did it give?
Answer: inactive

Question: How did the Potency turn out when `COc1cc(O)c2c(=O)c3c(O)c(O)ccc3oc2c1OC` was run?
Answer: inactive

Question: How did the Potency turn out when `COc1ccccc1C(=O)c1ccccc1C(=O)c1ccccc1` was run?
Answer: inactive

Question: With `CCc1c(Nc2ccccc2Cl)nc(N)[nH]c1=O` as the molecule, how does the Potency read?
Answer: inactive

Question: With `O=C1NCC(c2ccccc2)(c2ccccc2)C(=O)N1` as the molecule, how does the Potency read?
Answer: inactive

Question: With `CC(=O)OC1CCC2(C)C(=CCC3C4CC(=O)N(O)C(=O)C4(C)CCC32)C1` (stereo unspecified) as the molecule, how does the Potency read?
Answer: inactive

Question: For `O=c1[nH]c(=S)[nH]c(O)c1/C=C1\C=Nc2ccccc21`, which Potency is on record?
Answer: inactive

Question: With `CN1CCC(N(C)C(=O)c2ccc(Cl)c(S(=O)(=O)Nc3ccc(Cl)cc3)c2)CC1` as the molecule, how does the Potency read?
Answer: inactive

Question: With `O=C1CC(C(=O)O)NC(=S)N1` (stereo unspecified) as the molecule, how does the Potency read?
Answer: inactive

Question: Which Potency does the source give for `Cc1ccc(C)c(S(=O)(=O)N(C)c2ccc(OC(=O)C3CCN(C(=O)c4ccc(F)cc4)CC3)cc2)c1` here?
Answer: inactive

Question: How did the Potency turn out when `COc1ccc(C(=O)Nc2cccc(/C=C(/CCC(=O)O)c3nc4ccccc4s3)c2)cc1` was run?
Answer: inactive

Question: How did the Potency turn out when `O=C1COc2c1ccc(O)c2O` was run?
Answer: inactive

Question: With `COc1ccc(-c2nnc(-c3ccc4ccccc4c3)o2)cc1` as the molecule, how does the Potency read?
Answer: inactive

Question: For `CC(=O)c1cccc(-c2ccc(CN3C(CC(C)C)C(=O)N(Cc4cn(CC5CCCCC5)nn4)CCS3(=O)=O)cc2)c1` (stereo unspecified), which Potency is on record?
Answer: inactive

Question: With `Cn1c(N)cc(=O)n(C)c1=S` as the molecule, how does the Potency read?
Answer: inactive

Question: With `Nc1ccc2[nH]c(=S)sc2c1` as the molecule, how does the Potency read?
Answer: inactive

Question: `Cc1nc(N)sc1-c1ccccc1` was tested. Which Potency did it give?
Answer: inactive

Question: With `COc1ccc(Nc2ccc3ccccc3c2)cc1` as the molecule, how does the Potency read?
Answer: inactive

Question: `O=C(CCC(=O)N1CCN(S(=O)(=O)c2ccc(Cl)cc2)CC1)NCc1cccc(C(F)(F)F)c1` was tested. Which Potency did it give?
Answer: inactive

Question: Which Potency does the source give for `CCOC(=O)C(CO)NC(=O)C1(NC(C)=O)CCCC1` (stereo unspecified) (Ac-[Ac5c]-[ξS]-OEt) here?
Answer: inactive

Question: For `CCN1CCC(O)(/C=C/c2ccc(C)cc2)C(C(=O)/C=C/c2ccc(C)cc2)C1` (stereo unspecified), which Potency is on record?
Answer: inactive

Question: `COC(=O)Cc1c(-c2[nH]c3ccccc3c2CC(=O)OC)[nH]c2ccccc12` was tested. Which Potency did it give?
Answer: inactive

Question: With `CC1(C)C(=O)CCC2(C)C1=CCC1C2C(=O)CC2(C)C1CCC2(O)C(=O)CO` (stereo unspecified) as the molecule, how does the Potency read?
Answer: inactive

Question: Which Potency does the source give for `C#CCOCCOCCOCCNc1nc(N2CCOCC2)nc(N2CCN(C(=O)[C@H](Cc3ccc(O)cc3)n3cc(CCO)nn3)CC2)n1` here?
Answer: inactive

Question: How did the Potency turn out when `CSc1ncnc2c1ncn2CC(=O)C1CCC2C3CCC4=CC(=O)CCC4(C)C3CCC12C` (stereo unspecified) was run?
Answer: inactive

Question: Which Potency does the source give for `COc1ccc(/C=C/C(=O)OCC(=O)N2CCN(S(=O)(=O)c3ccc(C)cc3C)CC2)cc1OC` here?
Answer: inactive

Question: For `CN(C)c1ccc(CSc2ccccc2)cc1`, which Potency is on record?
Answer: inactive

Question: With `Cc1cccc(CC2(O)C(=O)Nc3ccccc32)n1` (stereo unspecified) as the molecule, how does the Potency read?
Answer: inactive

Question: How did the Potency turn out when `O=C(Cc1ccc(NC(=O)C2CCCN(C(=O)CCc3ccccc3)C2)cc1)Nc1ccc(C(=O)N2CCOCC2)cc1` (stereo unspecified) was run?
Answer: inactive

Question: With `O=C(Cc1ccc(S(=O)(=O)N2CCOCC2)s1)Nc1ccc(Br)c(C(F)(F)F)c1` as the molecule, how does the Potency read?
Answer: inactive

Question: With `CN(CCc1ccccc1)C(=O)c1cccc(NC(=O)Cc2cccc(NC(=O)C3CCCN(C(=O)CCc4ccccc4)C3)c2)c1` (stereo unspecified) as the molecule, how does the Potency read?
Answer: inactive

Question: Which Potency does the source give for `COc1ccc(CNCCCNCc2ccc(OC)c(OC)c2)cc1OC` here?
Answer: inactive

Question: For `CCOc1cc(C=NNC(=O)CCCC(=O)NN=Cc2ccc(O)c(OCC)c2)ccc1O`, which Potency is on record?
Answer: inactive

Question: How did the Potency turn out when `COc1ccc(Br)cc1/C=N/Nc1ccc(S(=O)(=O)Nc2ccccc2C(=O)O)cc1[N+](=O)[O-]` was run?
Answer: inactive

Question: With `O=C(NN=Cc1ccccc1O)NN=Cc1ccccc1O` as the molecule, how does the Potency read?
Answer: inactive

Question: For `O=C(NNC(=O)c1ccccc1O)c1ccccc1O`, which Potency is on record?
Answer: inactive

Question: For `CCCN(CCC)S(=O)(=O)c1cc2c(cc1Br)CCN2C(=O)CC`, which Potency is on record?
Answer: inactive

Question: For `CCOc1ccccc1NC(=S)C(=C([O-])c1ccc2c(c1)OCCO2)[n+]1ccc(CC)cc1`, which Potency is on record?
Answer: inactive

Question: For `COc1ccc(N=C2C=CC(=O)O2)cc1`, which Potency is on record?
Answer: inactive

Question: Which Potency does the source give for `Cc1cccc(C=CC(=O)c2ccc(Cl)cc2)c1` here?
Answer: inactive

Question: For `COc1ccc(CCNC(=O)COc2cc(C)cc3oc(=O)c(C)c(C)c23)cc1OC`, which Potency is on record?
Answer: inactive
